According to patent publication US10179914B2, “CDC25A inhibitor for the treatment of drug resistant cancer or for the prevention of tumor relapse” (INSERM (INSTITUT NATIONAL DE LA SANTÉ ET DE LA RECHERCHE …, priority 2014, dated 2019):

System: MOLM-14 cells (FLT3-ITD positive)
Experiment: Cell proliferation, trypan blue counting, MOLM-14
Assay type: cell-based, human
Conditions: 1 nM
Procedure: Cells were harvested each day and counted after trypan blue staining. The graphs represent three independent experiments.
Cell lines and reagents. […] Concerning MOLM-14 cell line, the presence of a monoallelic 21 bp FLT3-ITD mutation and of an MLL-containing ins(11; 9)(q23;p22p23) were verified (Hematology laboratory of Toulouse University Hospital, Prof E. Delabesse and Dr I. Luquet). KG1 and HL-60 (ACC-14 and ACC-3, DSMZ) cell lines were grown in Iscove's Modified Dulbecco's Medium (IMDM, Gibco) plus 20% FBS. All cells were grown in the presence of 100 units/ml of penicillin and streptomycin (Invitrogen) at 37° C. and 5% CO2.
siRNA. The MV4-11 cell line was transfected with the Amaxa nucleofection technology (Lonza, Koeln, Germany). […] Twenty-four or forty-eight hours after transfection, cells were counted (trypan blue staining), and western blotting was performed.

SMILES: CC(C)(C)c1cc(NC(=O)Nc2ccc(-c3cn4c(n3)sc3cc(OCCN5CCOCC5)ccc34)cc2)no1 [AC220, quizartinib, reference compound]
- cell death in MOLM-14: low levels of cell death
